The assay has as its target lactate dehydrogenase A (LDHA) (Homo sapiens, UniProt P00338).

pIC50: −log10 of the molar value.

The compound `NC(=O)C(=O)O` [oxamate] gave a pIC50 of 3.88.

Source of the values: article PMC6408513, “A Novel Lactate Dehydrogenase Inhibitor, 1-(Phenylseleno)-4-(Trifluoromethyl) Benzene, Suppresses Tumor Growth through Apoptotic Cell Death” (Scientific Reports, 2019).
